Measured values taken from patent US6812251B2, “Taurine compounds” (priority 2001, dated 2004).

Legend:
[1] = test system: PA1 human ovarian tumor cells; test: Tumor cell growth inhibition, PA1 cells (cell counting); format: cell-based; details: read-out: IC50 (concentration required to inhibit cell number by 50%), 5-100 μM, 3 d (72 h) exposure, electronic cell counting, mean ± SE
[2] = test system: DU-145 human prostate tumor cells; test: Western blot of PARP cleavage and procaspase 8a/b; details: DU-145 cells, 50 μM
[3] = test system: Escherichia coli bacterial cells; test: Bacterial cell growth inhibition (optical density at 600 nm); details: E. coli in LB, concentrations ≦1000 μM, OD hourly up to 6 hour
[4] = test system: DU-145 human prostate tumor cells; test: Flow cytometry (propidium iodide) apoptosis, sub-G0/G1 peak; format: cell-based; details: DU-145 cells, 50 μM, 24 h

Compound: [N-]=[N+]=NCCS(=O)(=O)N=[N+]=[N-]
- IC50 [1]: 4.9 µM
- cytotoxic potency and speed compared to taurolidine [2]: more potent cytotoxic agents and exert cytotoxity more rapidly compared to taurolidine
- induction of apoptotic death (flow cytometry and Western blot: PARP 85 kD fragment, reduced procaspase 8a/b) ([2]; 12 h): induce apoptotic death of tumor cells
- bacterial cell growth inhibitory activity [3]: potent bacterial cell growth inhibitory activity
- % apoptosis (sub-G0/G1 peak area) [4]: 38%
- level of apoptosis greater than that in taurolidine-treated cells [4]: at least 10%
- level of apoptosis relative to taurolidine-treated cells [4]: greater than 2 fold
